In EP1056860B1:

Target: tumor-associated glycoprotein TAG-72 (human)
Assay: solid-phase assay on TAG-72 coated plates with 125I-labeled goat anti-human IgG, Scatchard analysis, mean of 7 analyses

chimeric CC49 antibody MuVH/MuVK (ATCC HB 9884)
Ka: 7.62e+09 M⁻¹
